Yeast mating assay 1: variants of the scFv Ab-14

Values reported by Engelhart et al. 2022, doi:10.1038/s41597-022-01779-4 (FLAb copy).

The target is the same throughout: PDVDLGDISGINAS, from the HR2 region of SARS-CoV-2 spike.

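The parent was found by panning a naive human phage display library on the peptide. AAYL50 was designed without a model: most single CDR substitutions and a random sample of double and triple ones. Affinity was read by AlphaSeq, a pooled yeast mating assay with surface-displayed partners. The frequency of each diploid, read from paired DNA barcodes, reflects how well the two displayed proteins bind. Scores were corrected for input abundance and mapped to Kd with protein pairs of known affinity run in the same pool. The assay was run in three technical replicates.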

Each scFv is VH, the linker GGGGSGGGGSGGGGS, VL, as in the parent Ab-14, and differs from it in the CDRs of the light chain only.
VH: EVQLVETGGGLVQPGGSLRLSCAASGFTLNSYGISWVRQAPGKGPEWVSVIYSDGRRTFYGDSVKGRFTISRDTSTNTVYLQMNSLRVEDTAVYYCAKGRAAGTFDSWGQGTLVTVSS
VL: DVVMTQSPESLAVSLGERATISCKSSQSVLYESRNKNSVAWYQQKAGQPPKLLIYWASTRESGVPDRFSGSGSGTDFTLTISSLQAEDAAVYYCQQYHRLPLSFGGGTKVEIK

The parent's light chain CDRs are KSSQSVLYESRNKNSVA, WASTRES, QQYHRLPLS; each variant's own CDRs replace them letter for letter. All variants listed here change S28 of the VL, counted from its first residue. Kd is apparent (estimated from mating counts) and averaged on the log scale over replicates with a signal. Smaller is tighter. An entry "nd" has no value in the source: the pair was not observed among the diploids in any replicate. This suggests poor binding but is not conclusive. As a blank, each scFv also met three strains without target: over library AAYL50, 18% of these pairings were detected, typically at 15 µM and seldom below 970 nM. For reference, the parent read 4.4 nM as the reference entry and 48 nM as a member of this library.

* KSSQTVLYPSRNKNSVA, WASTRES, QQYHRVPLS: 460 nM (1 of 3 replicates)
* KSSQYVCYESRNKNSVA, WASTRRS, QQYHRLPLS: nd (0 of 3 replicates)
* KSSQKVLSESRNKLSVA, WASTRES, QQYHRLPLS: nd (0 of 3 replicates)
* KSSQEVLYEERNKNSVA, WASTLES, QQYHRLPLS: 11 µM (3 of 3 replicates)
* KSSQYVLYEERNKNSVA, WASTRES, QQYERLPLS: 160 nM (3 of 3 replicates)
* KSSQEVLYKSRNKNSVA, WASTRES, LQYHRLPLS: nd (0 of 3 replicates)
* KSSQFVLYESRFKGSVA, WASTRES, QQYHRLPLS: nd (0 of 3 replicates)
* LSSQWVLYESRNKNRVA, WASTRES, QQYHRLPLS: 730 µM (2 of 3 replicates)
* KSSIKVLYESRNKNSVA, WAHTRES, QQYHRLPLS: 190 nM (3 of 3 replicates)
* KSSQHVLYESRNKNSVT, WAVTRES, QQYHRLPLS: nd (0 of 3 replicates)
* KSSQVVLYERRNKNSVA, WASTRES, QQYDRLPLS: nd (0 of 3 replicates)
* KSSQGVLYEKRNKNSVA, PASTRES, QQYHRLPLS: nd (0 of 3 replicates)
* KSSQGVLYESRNKNSVA, WASTRES, QQYHRLPLS: 14 nM (3 of 3 replicates)
* KSSQILLYESRNKNSIA, WASTRES, QQYHRLPLS: 14 nM (3 of 3 replicates)
* KSSQHVLYESRNKNNVA, WAQTRES, QQYHRLPLS: 530 nM (3 of 3 replicates)
* KSSQIVHWESRNKNSVA, WASTRES, QQYHRLPLS: 11 nM (3 of 3 replicates)
* KSSQEVTYESRNKNSVA, WASTRES, QQYHDLPLS: nd (0 of 3 replicates)
* KSSQIVLYESRNKNSPA, WASWRES, QQYHRLPLS: nd (0 of 3 replicates)
* KSSQLVLYESRNKNSVA, WASTRIS, QQYHRLPNS: 5.4 µM (2 of 3 replicates)
* KSSQFVLYEDRNKNAVA, WASTRES, QQYHRLPLS: 11 nM (3 of 3 replicates)
* KSSQDVLYESRNKNSVA, WASTRES, QQYHRLPLS: 8.2 nM (3 of 3 replicates)
* KSSQGVLYESRNKNSVA, WASTRES, QQQHRLPNS: 280 nM (3 of 3 replicates)
* KSSQGVLYESRNKNSVA, WASTRES, QQYHFLSLS: nd (0 of 3 replicates)
* KSSQMVHYESRDKNSVA, WASTRES, QQYHRLPLS: 53 nM (3 of 3 replicates)
* KSSFFVLYESRNKNSVA, WASTDES, QQYHRLPLS: nd (0 of 3 replicates)
* MSSQVVLYESRNKNSVA, WASTRES, QQYTRLPLS: 570 nM (1 of 3 replicates)
* KSSQGVLYESRNKNNVA, WASTRES, IQYHRLPLS: 56 nM (3 of 3 replicates)
* KSSQRVLYESRNKNSVA, WASTRES, QQYHRLPLS: 460 nM (3 of 3 replicates)
* KSSQEVLYESRNKNSVA, IASTRES, QQYHRLPLS: 110 µM (1 of 3 replicates)
* KSSQCDLYESRNKNSVA, WASTRES, QTYHRLPLS: nd (0 of 3 replicates)
* KSSQWVLYESRNKNKVA, WASTRES, QQYHRLCLS: nd (0 of 3 replicates)
* KSSQTVLYESRNKNSVA, WASTNES, QIYHRLPLS: 5.4 µM (1 of 3 replicates)
* KSSQEVLYESKNKNSVA, WASTRES, QRYHRLPLS: 350 nM (3 of 3 replicates)
* KSSQCVLYESRNKNSVA, WASTRES, QQYHRLPLS: 120 nM (3 of 3 replicates)
* KSSQQVLYESRNKTSVA, WASTREN, QQYHRLPLS: 15 µM (2 of 3 replicates)
* KSSQQVLYWSRNKNCVA, WASTRES, QQYHRLPLS: nd (0 of 3 replicates)
* KSSQFVLQESRNKNSVA, WASWRES, QQYHRLPLS: 68 nM (3 of 3 replicates)
* KSSQQVLYESRNKNSVA, WASTRDS, QQYHRKPLS: nd (0 of 3 replicates)
* KSSQHVLYESRLKNSVA, WASTRES, QQYHRLPLC: 87 nM (3 of 3 replicates)
* KSSLYVLYESRNKKSVA, WASTRES, QQYHRLPLS: 82 µM (2 of 3 replicates)
* SSSQCVLYESFNKNSVA, WASTRES, QQYHRLPLS: 2.0 µM (1 of 3 replicates)
* KSSQHVLAESRNKNSVA, WASTRES, QQSHRLPLS: 12 µM (3 of 3 replicates)
* KSSQDVLYDSRNKNSVA, WASTRES, QQSHRLPLS: 170 nM (3 of 3 replicates)
* KSSQPVLYESRNKNSVA, WAATRES, QQYHRLPLH: 260 nM (2 of 3 replicates)
* KFSQDVLYESRNKNSVA, WASTRES, QQYHRLPWS: 6.9 µM (1 of 3 replicates)
* KSSQHVLYESRNKNSVA, WFSTRES, QQYYRLPLS: nd (0 of 3 replicates)
* KSSQQVLYESRNWNSVA, WQSTRES, QQYHRLPLS: 47 µM (2 of 3 replicates)
* KSSQDVLMESRNKNSVA, WASTSES, QQYHRLPLS: 53 µM (2 of 3 replicates)

Excerpt, the final 5 entries:

- KSSQPVLYESRNKNSVA, WAATRES, QQYHRLPLH: 260 nM (2 of 3 replicates)
- KFSQDVLYESRNKNSVA, WASTRES, QQYHRLPWS: 6.9 µM (1 of 3 replicates)
- KSSQHVLYESRNKNSVA, WFSTRES, QQYYRLPLS: nd (0 of 3 replicates)
- KSSQQVLYESRNWNSVA, WQSTRES, QQYHRLPLS: 47 µM (2 of 3 replicates)
- KSSQDVLMESRNKNSVA, WASTSES, QQYHRLPLS: 53 µM (2 of 3 replicates)